By UniProt entry, the sequences of proteins in these tests, tags left out. Where a name states a change or a piece, a line headed by the entry shows the natural chain unless it says otherwise.
UniProt P35377: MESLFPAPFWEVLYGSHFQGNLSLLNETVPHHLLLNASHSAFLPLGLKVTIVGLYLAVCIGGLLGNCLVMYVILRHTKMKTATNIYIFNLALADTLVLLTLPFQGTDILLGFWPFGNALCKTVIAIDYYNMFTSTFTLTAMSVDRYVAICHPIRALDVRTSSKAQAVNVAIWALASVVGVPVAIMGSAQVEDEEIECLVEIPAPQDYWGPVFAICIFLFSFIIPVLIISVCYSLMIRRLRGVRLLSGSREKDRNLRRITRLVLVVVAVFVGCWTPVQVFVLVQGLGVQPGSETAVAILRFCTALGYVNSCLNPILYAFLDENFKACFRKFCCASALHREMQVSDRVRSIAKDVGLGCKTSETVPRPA

In ChEMBL document CHEMBL1133453, “Further studies on nociceptin-related peptides: discovery of a new chemical template with antagonist activity on the nociceptin receptor” (J Med Chem, 2000):

Experiments:
Nociceptin receptor = Nociceptin receptor (Mus musculus, UniProt P35377); assay: Affinity to nociceptin receptors on mouse forebrain membranes by [3H]NC-NH2 displacement.
Method in brief: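 Forebrain membranes from male Swiss mice (25-30 g), homogenized in 50 mM Tris HCl, 2 mM EDTA, 100 µM PMSF, pH 7.4, then preincubated 30 min at 37 °C. Bound ligand separated by GF/C filtration. Ki obtained by nonlinear least-squares fitting.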

Mus musculus [1] = organism: Mus musculus; assay: Potency (Emax) against electrically evoked contraction (twitch response) in mouse vas deferens; assay type: functional
Method in brief: (§1)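 Mouse vas deferens held in Mg2+-free Krebs at 33 °C under 0.3 g resting tension. Field stimulation through platinum electrodes with supramaximal 1-ms pulses at 0.1 Hz, twitches recorded isotonically. After about 2 h equilibration, cumulative concentration-response curves built in 0.5 log steps up to 10 µM. pEC50 taken as the concentration giving half-maximal effect. Mean of at least 3 experiments.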

Mus musculus [2] = organism: Mus musculus; assay: Compound was tested for agonistic activity against electrically evoked contraction (twitch response) in mouse vas deferens; assay type: functional, organism-based; method in brief: as §1

SMILES | Ki (Nociceptin receptor) [µM] | Emax (Mus musculus [1]) [%] | EC50 (Mus musculus [2]) [µM]
C[C@H](NC(=O)CNC(=O)[C@@H](NC(=O)[C@H](Cc1ccccc1)NC(=O)CNC(=O)CNC(=O)CNCc1ccccc1)[C@@H](C)O)C(=O)N[C@@H](CCCN=C(N)N)C(=O)N[C@@H](CCCCN)C(=O)N[C@@H](CO)C(=O)N[C@@H](C)C(=O)N[C@@H](CCCN=C(N)N)C(=O)N[C@@H](CCCCN)C(N)=O | 0.1 | – | –
CC(C)C[C@H](NC(=O)[C@H](CCCCN)NC(=O)[C@H](CCCNC(=N)N)NC(=O)[C@H](C)NC(=O)[C@H](CO)NC(=O)[C@H](CCCCN)NC(=O)[C@H](CCCNC(=N)N)NC(=O)[C@H](C)NC(=O)CNC(=O)[C@@H](NC(=O)[C@H](Cc1ccccc1)NC(=O)CNC(=O)CNC(=O)[C@@H](N)Cc1ccccc1)[C@@H](C)O)C(=O)N[C@@H](C)C(=O)N[C@@H](CC(N)=O)C(=O)N[C@@H](CCC(N)=O)C(N)=O [NOCICEPTIN-NH2] | – | -79 | 0.02
